One compound from US11034679B2 (priority 2017, dated 2021) can be followed below.

The chains behind the UniProt entries cited, without tags or fusion partners.
UniProt P35372, whole entry: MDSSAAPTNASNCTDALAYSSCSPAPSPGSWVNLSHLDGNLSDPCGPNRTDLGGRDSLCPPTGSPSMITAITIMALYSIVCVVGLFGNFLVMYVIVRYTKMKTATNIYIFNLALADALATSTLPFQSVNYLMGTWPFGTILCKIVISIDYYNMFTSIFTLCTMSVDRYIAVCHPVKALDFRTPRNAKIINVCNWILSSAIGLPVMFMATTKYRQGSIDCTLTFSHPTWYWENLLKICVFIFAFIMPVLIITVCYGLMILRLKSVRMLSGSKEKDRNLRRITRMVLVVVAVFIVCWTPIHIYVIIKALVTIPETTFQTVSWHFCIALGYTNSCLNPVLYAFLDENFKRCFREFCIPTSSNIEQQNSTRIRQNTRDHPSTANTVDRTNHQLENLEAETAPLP

Molecules are shown by their SMILES.

The target of the assay is MOR (Homo sapiens, UniProt P35372). Description: cell-based. The conditions noted are these: read-out: % Efficacy (maximum efficacy based on DAMGO maximum stimulation). More on the design: host or cells: CHO-K1 OPRM1 β-arrestin-2 cells.

Take `COC(=O)[C@@H]1C=C(OC(=O)c2ccccc2)C(=O)[C@H]2[C@@]1(C)CC[C@H]1C(=O)O[C@H](c3ccoc3)C[C@]21C` [kurkinorin, reference compound]: the Emax was 96%.
